Results from PMC2518627, “Refinement of a radioreceptor binding assay for nicotinic acid adenine dinucleotide phosphate” (Analytical Biochemistry, 2007).

Assay: Stability of nucleotides under different pH conditions (HPLC)
Type: physicochemical
Conditions: 1 mM, 6 h; for Stability at pH 7.2: 50 mM Hepes (pH 7.2); for Stability at pH 0.88: 0.75 M HClO4 (pH 0.88); for Stability at pH 8.6: 0.75 M HClO4/1 M KHCO3 (pH 8.6); for Stability at pH 11: 1 M K2CO3 (pH 11); for Stability at pH 9.1: 1 M KHCO3 (pH 9.1)
Protocol: All high-performance liquid chromatography (HPLC) was carried out on an anion exchange resin (AGMP1, Bio-Rad, USA), packed in 150 × 2.5-mm Omnifit columns, using a concave upward gradient of trifluoroacetic acid (TFA), delivered by a Waters 600e pump, as described previously. Detection was performed by a UV detector (Waters 2487, UK) at 254 nm.
NADP, NAADP, or NADPH (reduced-form NADP) (1 mM) was incubated in the following buffers for 6 h: 50 mM Hepes (pH 7.2), 0.75 M HClO4 (pH 0.88), 1 M KHCO3 (pH 9.1), 0.75 M HClO4/1 M KHCO3 (pH 8.6), or 1 M K2CO3 (pH 11). Samples were then neutralized with their base equivalence of either Tris base (for acidic solutions) or Hepes acid (for basic solutions) as applicable. Samples were analyzed by HPLC as described above, with elution times being determined from standard runs with known compounds.

| Substance | Stability at pH 7.2 | Stability at pH 0.88 | Stability at pH 8.6 | Stability at pH 11 | Stability at pH 9.1 |
| --- | --- | --- | --- | --- | --- |
| nicotinamide adenine dinucleotide phosphate [NADP] | remained stable | remained stable | remained stable | converted to a variety of products, including NAADP | remained stable |
| nicotinic acid adenine dinucleotide phosphate [NAADP] | remained stable | remained stable | remained stable | some conversion of NAADP to NADP | remained stable |
